Test results: patent US20040002117
Changes are numbered by the printed parent chain.

Experiments:
[1] = biological target: T1, HA-tagged wild type NFAT1 (UniProt Q60591)
T1 sequence: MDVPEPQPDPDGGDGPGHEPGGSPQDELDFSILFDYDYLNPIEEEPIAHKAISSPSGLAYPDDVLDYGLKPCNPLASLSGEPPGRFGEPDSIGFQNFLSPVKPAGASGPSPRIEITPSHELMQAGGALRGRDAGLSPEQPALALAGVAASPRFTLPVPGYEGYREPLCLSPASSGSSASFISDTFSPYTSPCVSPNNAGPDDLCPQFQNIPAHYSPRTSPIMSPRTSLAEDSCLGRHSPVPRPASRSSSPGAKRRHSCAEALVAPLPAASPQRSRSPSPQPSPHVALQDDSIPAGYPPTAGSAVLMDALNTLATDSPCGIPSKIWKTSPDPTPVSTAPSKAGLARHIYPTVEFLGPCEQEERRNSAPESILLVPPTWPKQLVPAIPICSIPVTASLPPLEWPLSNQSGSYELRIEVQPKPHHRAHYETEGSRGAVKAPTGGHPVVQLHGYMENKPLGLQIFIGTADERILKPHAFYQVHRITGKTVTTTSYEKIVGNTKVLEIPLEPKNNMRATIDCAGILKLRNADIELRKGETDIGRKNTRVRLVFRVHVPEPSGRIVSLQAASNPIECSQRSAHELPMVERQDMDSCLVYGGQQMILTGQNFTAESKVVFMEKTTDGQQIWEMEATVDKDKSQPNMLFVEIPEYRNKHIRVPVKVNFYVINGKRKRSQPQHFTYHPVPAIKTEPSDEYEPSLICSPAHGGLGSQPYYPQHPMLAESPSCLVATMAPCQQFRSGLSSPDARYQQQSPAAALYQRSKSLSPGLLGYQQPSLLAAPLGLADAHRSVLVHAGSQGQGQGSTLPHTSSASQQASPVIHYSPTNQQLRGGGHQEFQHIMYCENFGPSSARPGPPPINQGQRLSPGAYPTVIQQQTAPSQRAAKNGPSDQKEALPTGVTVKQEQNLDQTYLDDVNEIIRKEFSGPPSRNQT

[2] = biological target: T2, HA-tagged triple CM2 mutant NFAT1 (UniProt Q60591)
T2 sequence: T1 sequence with R112A, E114A, T116A

calcineurin
in vitro dephosphorylation of NFAT1 in HeLa cytoplasmic extracts by exogenous calcineurin/calmodulin (SDS-PAGE shift, anti-HA Western blot) [1]: Dephosphorylation of wild type NFAT1 was apparent with 200 nM calcineurin
in vitro dephosphorylation of NFAT1 in HeLa cytoplasmic extracts by exogenous calcineurin/calmodulin (SDS-PAGE shift, anti-HA Western blot) [2]: the triple CM2 mutant was markedly less sensitive, with only partial dephosphorylation occurring in the presence of 2.5 µM calcineurin
